Drawing on patent publication US20250042857A1, “SOS1 Inhibitor With Pyrido-Fused Six-Membered Ring Structure” (HAIHE BIOPHARMA CO., LTD., priority 2021, published 2025), this text covers IC50 for six compounds.

Sequences of proteins named here, by UniProt entry; tags and fusion partners are left off. A change or cut given only in a name is not applied to a line headed by its entry.
UniProt Q07889, whole entry, stated change not applied: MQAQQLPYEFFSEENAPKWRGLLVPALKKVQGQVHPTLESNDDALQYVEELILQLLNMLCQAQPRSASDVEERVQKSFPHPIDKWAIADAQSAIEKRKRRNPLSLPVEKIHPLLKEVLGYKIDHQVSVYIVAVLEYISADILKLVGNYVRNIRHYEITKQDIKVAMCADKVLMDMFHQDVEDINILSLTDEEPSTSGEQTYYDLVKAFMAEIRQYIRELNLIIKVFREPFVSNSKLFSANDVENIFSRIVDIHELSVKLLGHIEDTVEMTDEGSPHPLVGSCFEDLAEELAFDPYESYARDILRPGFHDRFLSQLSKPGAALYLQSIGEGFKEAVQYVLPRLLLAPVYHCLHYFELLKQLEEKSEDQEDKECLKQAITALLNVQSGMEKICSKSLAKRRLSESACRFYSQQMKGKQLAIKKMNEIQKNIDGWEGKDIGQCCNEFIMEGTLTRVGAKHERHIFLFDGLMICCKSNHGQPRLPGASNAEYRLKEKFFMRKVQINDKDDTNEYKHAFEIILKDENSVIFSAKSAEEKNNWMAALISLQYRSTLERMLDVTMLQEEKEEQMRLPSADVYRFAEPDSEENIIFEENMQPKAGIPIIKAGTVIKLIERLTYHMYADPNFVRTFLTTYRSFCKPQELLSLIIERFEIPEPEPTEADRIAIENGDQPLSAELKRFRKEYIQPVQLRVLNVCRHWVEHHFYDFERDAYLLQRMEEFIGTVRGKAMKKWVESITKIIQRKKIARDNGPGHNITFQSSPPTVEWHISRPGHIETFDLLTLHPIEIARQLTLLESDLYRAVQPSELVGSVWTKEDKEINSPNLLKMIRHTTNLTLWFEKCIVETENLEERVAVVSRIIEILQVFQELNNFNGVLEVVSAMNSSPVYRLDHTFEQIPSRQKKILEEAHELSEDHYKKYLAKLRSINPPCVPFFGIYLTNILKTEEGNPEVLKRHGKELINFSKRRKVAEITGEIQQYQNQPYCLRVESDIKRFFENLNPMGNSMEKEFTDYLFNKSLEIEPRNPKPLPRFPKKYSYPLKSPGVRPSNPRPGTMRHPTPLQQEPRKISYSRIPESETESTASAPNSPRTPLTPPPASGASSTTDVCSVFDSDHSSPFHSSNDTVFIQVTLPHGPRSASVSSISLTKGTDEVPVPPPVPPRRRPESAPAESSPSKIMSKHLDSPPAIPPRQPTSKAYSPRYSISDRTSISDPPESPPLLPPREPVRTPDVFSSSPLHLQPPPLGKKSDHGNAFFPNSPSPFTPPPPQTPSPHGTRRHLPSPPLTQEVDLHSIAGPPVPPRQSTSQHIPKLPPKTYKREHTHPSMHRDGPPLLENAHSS

In this assay the target is KRAS-G12C/SOS1 (Homo sapiens (Human), UniProt Q07889). The assay is described as follows: Detection of inhibitory effects of compounds on KRAS-G12C/SOS1 (KRASG12C/SOS binding kit, HTRF). The following applies: read-out: IC50, inhibitory activity on interaction of KRAS-G12C/SOS1, Em665/620. From the text:
Experimental objective: The inhibitory effects of the tested compounds on KRAS-G12C/SOS1 were detected. IC50 was used to characterize the inhibitory ability of the compounds on the KRAS-G12C/SOS1. The lower IC50 value indicated the stronger inhibitory ability. BI-3406 was used as a positive control compound.
Experimental reagents: KRASG12C/SOS binding kit (Cisbio, cat. 63ADK000CB16PEG); DMSO (Sigma, cat. D8418-1L); and 384-well white plate (PerkinElmer, cat. 6007290)
• 1. Preparation of compounds: the test compounds were dissolved in 100% DMSO to obtain 10 mM stock solutions and the stock solutions were stored in a refrigerator in the dark. • 2. Kinase reaction process:
Preparation of compounds: the test compounds had the concentration of 5,000 nM and diluted in a 384-well plate into a 100% DMSO solution at the 200-fold final concentration, and the compounds were diluted 3-fold with 10 concentrations. 50 nL of the compounds at the 200-fold final concentration were transferred to the plate of interest, the 384-well plate, using a dispenser Echo 550. 50 nL of 100% DMSO was added to each negative control well and positive control well.
A Tag1-SOS1 solution at the 4-fold final concentration was prepared using a diluent buffer.
2.5 μL of the Tag1-SOS1 solution at the 4-fold final concentration was added to the 384-well plate.
A Tag2-KRAS-G12C solution at the 4-fold final concentration was prepared using the diluent buffer.
2.5 μL of the Tag2-KRAS-G12C solution at the 4-fold final concentration was respectively added into compound wells and the positive control wells; and 2.5 μL of the diluent buffer was added to the negative control wells.
The 384-well plate was centrifuged at 1,000 rpm for 30 seconds, shaken and mixed uniformly, and incubated at room temperature for 15 minutes.
An Anti-Tag1-TB3+ solution at the 1-fold final concentration and an Anti-Tag2-XL665 solution at the 1-fold final concentration were prepared using a detection buffer, the two solutions were mixed uniformly to obtain a Mix solution, and 5 μL of the Mix solution was added into each well.
The 384-well plate was centrifuged at 1,000 rpm for 30 seconds, shaken and mixed uniformly, and incubated at 4° C. for 120 minutes.
Em665/620 was read using an Envision microplate reader.
Inhibition %=(Max signal−Compound signal)/(Max signal−Min signal)×100 Calculation formula • wherein the Min signal was the mean value of the negative control wells, and the Max signal was the mean value of the positive control wells.
A dose-response curve was fitted using the log value of the concentration as an X axis and the percentage of the inhibitory rate as a Y axis by using the log(inhibitor) vs. response-variable slope of an analytical software GraphPadPrism5, thereby obtaining the IC50 value of each compound on an enzyme activity.
In the case of `COc1nc(C2(O)CCC(O)CC2)cc2c(N[C@H](C)c3cccc(C(F)F)c3F)cc(C)nc12` (single isomer, unassigned), the IC50 is less than 100 nM.

With `CC(=O)NC1CCC(O)(c2cc3c(N[C@H](C)c4cccc(C(F)F)c4F)ccnc3cn2)CC1` (single isomer, unassigned), the IC50 was less than 100 nM.

Regarding `COC1(c2cc3c(N[C@H](C)c4cccc(C(F)F)c4F)ccnc3cn2)CCC(N(C)C)CC1` (single isomer, unassigned), the IC50 was less than 100 nM.

In the case of `C[C@@H](Nc1ccnc2cnc(C3(O)CCC(C)(O)CC3)cc12)c1cccc(C(F)F)c1F` (single isomer, unassigned), the IC50 was less than 100 nM.

On to `COC1CCC(OC)(c2cc3c(N[C@H](C)c4cccc(C(F)F)c4F)ccnc3cn2)CC1` (single isomer, unassigned), for which the IC50 is less than 100 nM.

On to `COC1CCC(O)(c2cc3c(N[C@H](C)c4cccc(C(F)F)c4F)ccnc3cn2)CC1` (single isomer, unassigned), for which the IC50 was less than 100 nM.
